From article doi:10.1101/2020.06.18.159301 (bioRxiv, 2020)

Target: the molecule itself
Experiment: detergent insolubility assay

B1: Recombinant human 2N4R tau, P301L (natural protein)
chain: not shown
  binding result: binds
